The numbers were not newly measured in publication PMC8893036 (European journal of medicinal chemistry, 2022), which cites them from elsewhere.

Sequences of proteins named here, by UniProt entry; tags and fusion partners are left off.
UniProt P0DMS8, whole entry: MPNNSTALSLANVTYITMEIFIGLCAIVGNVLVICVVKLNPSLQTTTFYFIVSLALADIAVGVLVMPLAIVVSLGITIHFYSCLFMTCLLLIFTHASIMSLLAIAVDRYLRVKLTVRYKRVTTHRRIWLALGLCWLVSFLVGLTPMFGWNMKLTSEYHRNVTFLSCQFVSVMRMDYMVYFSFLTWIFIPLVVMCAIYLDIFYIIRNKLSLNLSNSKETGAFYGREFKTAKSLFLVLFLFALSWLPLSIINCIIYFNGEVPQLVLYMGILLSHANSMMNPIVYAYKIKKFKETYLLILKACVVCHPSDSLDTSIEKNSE

This data set deals with human A3 adenosine receptor (Homo sapiens, UniProt P0DMS8). The settings on record: agonists; Tables S1 – S4; cited from earlier work.

In the case of `CNC(=O)[C@H]1O[C@@H](n2cnc3c(NCc4cccc(I)c4)nc(Cl)nc32)[C@H](O)[C@@H]1O` [Compound 4, reference compound], the “human A3 adenosine receptor affinity” value was “single digit nM affinity”.
